Experimental data: ChEMBL document CHEMBL4334540, “Epimers Switch Galectin-9 Domain Selectivity: 3N-Aryl Galactosides Bind the C-Terminal and Gulosides Bind the N-Terminal” (ACS Med Chem Lett, 2020)
Calls of active or inactive are those of the source.

Protein sequences, listed by entry. Tags and fused reporters are not part of them.
UniProt P17931, whole entry: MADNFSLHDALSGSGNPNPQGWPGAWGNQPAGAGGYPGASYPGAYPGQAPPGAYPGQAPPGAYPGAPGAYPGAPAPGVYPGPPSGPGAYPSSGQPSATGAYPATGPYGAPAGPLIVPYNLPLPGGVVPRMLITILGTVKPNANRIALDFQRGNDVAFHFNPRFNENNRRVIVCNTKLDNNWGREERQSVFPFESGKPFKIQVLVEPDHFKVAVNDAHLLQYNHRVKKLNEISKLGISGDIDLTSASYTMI
UniProt P47929, whole entry: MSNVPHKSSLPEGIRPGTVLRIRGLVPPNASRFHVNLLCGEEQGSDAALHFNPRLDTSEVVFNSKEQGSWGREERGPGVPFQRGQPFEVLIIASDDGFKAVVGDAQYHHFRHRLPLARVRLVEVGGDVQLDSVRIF
UniProt P09382, whole entry: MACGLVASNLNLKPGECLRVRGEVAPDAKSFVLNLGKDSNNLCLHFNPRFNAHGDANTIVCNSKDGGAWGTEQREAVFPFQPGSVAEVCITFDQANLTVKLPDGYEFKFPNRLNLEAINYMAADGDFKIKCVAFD

Assays:
[1] = target: T1, Galectin-8 (Homo sapiens) (UniProt O00214); assay: Binding affinity at recombinant human N-terminal Galectin 8 expressed in Escherichia coli BL21 at 2 mM incubated for 5 mins by fluorescence anisotropy assay
T1 sequence (whole entry): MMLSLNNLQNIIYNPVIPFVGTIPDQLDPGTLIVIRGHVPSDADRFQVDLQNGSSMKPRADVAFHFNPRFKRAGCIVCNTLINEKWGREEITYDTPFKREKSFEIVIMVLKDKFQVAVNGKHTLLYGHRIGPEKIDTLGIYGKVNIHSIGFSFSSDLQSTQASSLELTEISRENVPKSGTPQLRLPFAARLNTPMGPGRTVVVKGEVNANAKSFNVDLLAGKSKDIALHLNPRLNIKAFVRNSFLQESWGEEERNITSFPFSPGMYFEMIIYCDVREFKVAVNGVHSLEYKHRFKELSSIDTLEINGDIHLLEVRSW

Galectin-3 = Galectin-3 (Homo sapiens, UniProt P17931); assay: Binding affinity at recombinant human Galectin 3 expressed in Escherichia coli BL21 at 2 mM incubated for 5 mins by fluorescence anisotropy assay
[2] = target: T1, Galectin-8 (Homo sapiens); assay: Binding affinity at recombinant human C-terminal Galectin 8 expressed in Escherichia coli BL21 at 2 mM incubated for 5 mins by fluorescence anisotropy assay
Galectin-7 = Galectin-7 (Homo sapiens, UniProt P47929); assay: Binding affinity at recombinant human Galectin 7 expressed in Escherichia coli BL21 at 2 mM incubated for 5 mins by fluorescence anisotropy assay
Galectin-9 [3] = target: T2, Galectin-9 (Homo sapiens, UniProt O00182); assay: Binding affinity at recombinant human C-terminal Galectin 9 expressed in Escherichia coli BL21 at 2 mM incubated for 5 mins by fluorescence anisotropy assay
Galectin-1 = Galectin-1 (Homo sapiens, UniProt P09382); assay: Binding affinity at recombinant human Galectin 1 expressed in Escherichia coli BL21 at 2 mM incubated for 5 mins by fluorescence anisotropy assay
Galectin-9 [4] = target: T2, Galectin-9; assay: Binding affinity at recombinant human N-terminal Galectin 9 expressed in Escherichia coli BL21 at 2 mM incubated for 5 mins by fluorescence anisotropy assay

Measured: Activity

COc1ccc(N[C@@H]2[C@@H](O)[C@@H](Sc3ccc(Cl)c(Cl)c3)O[C@H](CO)[C@@H]2O)cc1
inactive: [1]

CO[C@@H]1O[C@H](CO)[C@H](O)[C@H](Nc2cccc(C)c2)[C@H]1O
inactive: Galectin-3 | [1] | [2] | Galectin-7

COc1ccc(N[C@H]2[C@@H](O)[C@@H](Sc3ccc(Cl)c(Cl)c3)O[C@H](CO)[C@@H]2O)cc1
inactive: Galectin-3 | Galectin-9 [3] | Galectin-1

COc1cccc(N[C@H]2[C@@H](O)[C@@H](CO)O[C@@H](OC)[C@@H]2O)c1
not listed: Galectin-9 [3] | Galectin-1
inactive: all other assays above

CO[C@@H]1O[C@H](CO)[C@H](O)[C@@H](Nc2ccc(C)cc2)[C@H]1O
not listed: Galectin-9 [4]
inactive: all other assays above

CO[C@@H]1O[C@H](CO)[C@H](O)[C@@H](Nc2cccc(C)c2)[C@H]1O
not listed: Galectin-9 [4]
inactive: all other assays above

CO[C@@H]1O[C@H](CO)[C@H](O)[C@@H](Nc2ccc(C)c(C)c2)[C@H]1O
not listed: Galectin-9 [4]
inactive: all other assays above

CO[C@@H]1O[C@H](CO)[C@H](O)[C@H](Nc2ccc(F)c(F)c2)[C@H]1O
not listed: Galectin-9 [3] | Galectin-1
inactive: all other assays above

CO[C@@H]1O[C@H](CO)[C@H](O)[C@H](Nc2ccc(C)c(C)c2)[C@H]1O
inactive: Galectin-3 | [1] | [2] | Galectin-7

COc1cccc(N[C@@H]2[C@@H](O)[C@@H](CO)O[C@@H](OC)[C@@H]2O)c1
not listed: Galectin-9 [4]
inactive: all other assays above

COc1ccc(N[C@@H]2[C@@H](O)[C@@H](CO)O[C@@H](OC)[C@@H]2O)cc1
not listed: Galectin-9 [4]
inactive: all other assays above

CO[C@@H]1O[C@H](CO)[C@H](O)[C@H](Nc2ccc(C)cc2)[C@H]1O
not listed: Galectin-9 [3] | Galectin-1
inactive: all other assays above

COc1ccc(N[C@H]2[C@@H](O)[C@@H](CO)O[C@@H](OC)[C@@H]2O)cc1
inactive: Galectin-3 | [1] | [2]

CO[C@@H]1O[C@H](CO)[C@H](O)[C@H](Nc2ccccc2)[C@H]1O
not listed: Galectin-9 [3] | Galectin-1
inactive: all other assays above

CO[C@@H]1O[C@H](CO)[C@H](O)[C@@H](Nc2ccc(F)c(F)c2)[C@H]1O
inactive: Galectin-3 | Galectin-9 [3] | [1] | [2]

CO[C@@H]1O[C@H](CO)[C@H](O)[C@@H](Nc2cccc(Cl)c2)[C@H]1O
not listed: Galectin-9 [4]
inactive: all other assays above

CO[C@@H]1O[C@H](CO)[C@H](O)[C@H](Nc2cccc(Cl)c2)[C@H]1O
inactive: Galectin-3 | [1] | [2]

COc1cccc(N[C@H]2[C@@H](O)[C@@H](Sc3ccc(Cl)c(Cl)c3)O[C@H](CO)[C@@H]2O)c1
not listed: Galectin-9 [3] | Galectin-9 [4]
inactive: all other assays above

CO[C@@H]1O[C@H](CO)[C@H](O)[C@@H](Nc2ccccc2)[C@H]1O
not listed: Galectin-9 [4]
inactive: all other assays above
